This note sets out measurements from patent US20250213703A1, “HUMAN INTERLEUKIN 2-POLYETHYLENE GLYCOL CONJUGATE AND USE THEREOF” (Novocodex Biopharmaceuticals Co., Ltd., priority 2021, published 2025).

In data set [1] the test system is CD8^+ T cells and CD4^+ Treg cells. Kind of data set: Immune cell population in CT26.WT tumor tissue (flow cytometry). It counts as in vivo, mouse. The settings on record: 5th day, 2.0 mg/kg IV QD × 5. As for the experimental part:
A cell suspension of 2×10^5/0.1 mL/mouse CT26.WT was subcutaneously inoculated into right backs of the mice. […] On the 5th day, tumor tissue samples of various groups were collected for flow cytometry detection of changes in cell populations of CD8^+ T cells and CD4^+ Treg cells.
Background: Flow cytometry measures light scatter and fluorescence of single cells or particles in a stream.

Data set [2] is described as follows: In-vivo pharmacokinetic study in mouse. The following applies: female C57 mice, single intravenous injection 1 mg/kg, serum, average value n=5.
A further data set relates to CTLL-2 cells. Kind of data set: STAT5 phosphorylation assay (CTLL-2 cells). It counts as cell-based. The following applies: mouse CTLL-2 cells containing IL-2Rαβγ; stimulated 10 minutes at 37° C.; pSTAT5/β-actin western blot. An excerpt:
In this method, two cell lines were adopted, wherein mouse CTLL-2 cells were a cell line containing IL-2Rαβγ, and human YT cells were a cell line containing IL-2Rβγ, and rhIL-2 activated the JAK-STAT signal pathway by binding with IL-2R on the cell surface. Different modification sites of various samples had different relative activities to the two kinds of cells. The lower the percentage change of EC50 ratio of YT cells/CTLL-2 cells was, the better the effect of promoting the immune function of the samples was, and on the contrary, the better the effect of inhibiting the immune function was.
The specific process was as follows: the mouse CTLL-2 cells (purchased from American Type Culture Collection) and the human YT cells were cultured in their own media (CTLL-2 cell medium: RPMI 1640+10% FBS+400 IU/mL rhIL-2, 2 mM L-glutamine and 1 mM sodium pyruvate; and YT cell medium: RPMI 1640+10% FBS+1 mm Non-Essential Amino Acids Solution (purchased from Gibco, product catalog number 11140050)) to a sufficient amount at condition of 37° C. and 5% carbon dioxide, and starved for 4 hours before detection, and then the cell density was adjusted to be 1×10^6 cells/mL for later use. […]
(In general: Immunoblotting shows a protein as a band on a membrane.)

In the case of “Quanqi rhIL-2: commercial rhIL-2 purchased from Shandong Quangang Pharmaceutical Co., Ltd., positive control drug”, in data set [1], the “CD8^+ T cells/CD4^+ Treg” value was found to be 1.3, the “Percentage of CD4^+ Treg in leucocytes” value was 6.7% and the “Percentage of CD8^+ T cells in leucocytes” value worked out at 8.5%. Moreover, in data set [2], the AUC0-t stood at 2445 ng·h/mL, the CL came out at 6.82 mL/min/kg, the Cmax is 6197 ng/mL and the Tmax stood at 4.98 min. For the same substance, in data set [2], the Vz is given as 0.455 L/kg.
As for “Reference: reference rhIL-2 purchased from Beijing Solarbio Science & Technology Co., Ltd., catalog number P00020”, the “STAT5 phosphorylation assay (CTLL-2 cells) EC50” value in the data set on CTLL-2 cells worked out at 0.12 ng/mL.

For orientation: Cmax means the highest concentration seen after dosing. A word on the Tmax: it is the time from dosing to the highest level. The term Vz denotes a proportionality between amount in the body and measured concentration, not a real space. Low values mean little distribution into tissue, high ones wide distribution into tissue.
